Tested on: methicillin resistant staphylococcus aureus (MRSA)
Experiment: Antimicrobial assay for plectasin (absorbance 600 nm, MRSA growth)
Format: cell-based
Conditions: 7 h, absorbance at 600 nm
Protocol: Fig. 4 Synthesis of plectasin employing our synthetic design. a HPLC-ESI MS analyses Reaction at time zero, the main peak corresponds to reduced plectasin with the observed mass 4801.1 ± 0.1 Da, calcd. 4801.0 Da (average isotopes). b Reaction after 10 s: the main peak corresponds to plectasin with single disulfide bond, with the observed mass 4798.2 ± 0.1 Da, calcd. 4798.0 Da (average isotopes). c Reaction after 8 min, the main peak corresponds to plectasin with two disulfide bonds with the observed mass 4526.2 ± 0.2 Da, calcd. 4527.0 Da (average isotopes). d Reaction after 13 min, the main peak corresponds to fully oxidized plectasin with the observed mass 4382.9 ± 0.1 Da, calcd. 4383.0 Da (average isotopes). e Plectasin activity assay: absorbance monitoring at 600 nm for methicillin resistant staphylococcus aureus (MRSA) growth after 7 h in the absence (in light blue) and presence (in light red) of synthetic plectasin and MRSA in the presence of trimethoprim (TMP) (in gray). […]
the protein solution was determined by Pierce® BCA Protein Assay Kit, Thermo
scientific. The circular dichroism spectrum was recorded in a Chirascan (Applied […]
The exact concentration of the protein solution was determined by Pierce® BCA
Protein Assay Kit, Thermo scientific. The circular dichroism spectrum was recorded in […]
absorbance readings at 600 nm to measure bacterial growth. […]

`CCCC[C@@H]1NC(=O)[C@H](CC(=O)O)NC(=O)[C@H](CC(=O)O)NC(=O)[C@H](CCC(=O)O)NC(=O)[C@H](CC(=O)O)NC(=O)[C@H](Cc2c[nH]c3ccccc23)NC(=O)[C@@H]2CCCN2C(=O)CNC(=O)[C@H](CC(N)=O)NC(=O)[C@@H](NC(=O)CNC(=O)[C@H](Cc2ccccc2)NC(=O)CN)CSSC[C@@H]2NC(=O)[C@H](Cc3ccc(O)cc3)NC(=O)CNC(=O)CNC(=O)[C@H](CCCCN)NC(=O)[C@H](Cc3ccc(O)cc3)NC(=O)CNC(=O)[C@H](CCCCN)NC(=O)[C@H]([C@@H](C)CC)NC(=O)[C@H](CO)NC(=O)[C@H](CCCCN)NC(=O)[C@@H]3CSSC[C@@H](C(=O)N[C@@H](Cc4ccc(O)cc4)C(N)=O)NC(=O)[C@H](CCCCN)NC(=O)[C@H](CSSC[C@H](NC(=O)[C@H](CCC(N)=O)NC1=O)C(=O)N[C@@H](Cc1c[nH]cn1)C(=O)N[C@@H](CC(N)=O)C(=O)N[C@@H](Cc1c[nH]cn1)C(=O)N3)NC(=O)[C@H](C(C)C)NC(=O)[C@H](Cc1ccccc1)NC(=O)CNC(=O)CNC(=O)[C@H](CCCCN)NC(=O)[C@H](C)NC2=O` [plectasin] was tested, and the IC50 (MRSA growth in LB medium, serial two-fold dilutions of synthetic plectasin, 37 °C in ambient air, n = 3 biologically independent samples) was 1.5 to 2 µM and the “biological antibiotic activity” value (synthetic plectasin, MRSA, LB medium, 37 °C, n = 3) was “exhibited the expected biological antibiotic activity”.

Source: paper PMC7870662, “General synthetic strategy for regioselective ultrafast formation of disulfide bonds in peptides and proteins” (Nature Communications, 2021)
